The structures appear in SMILES notation. Only a part is listed here, and it is no random draw. Active and inactive are the calls of the source. Rule as the data show it: active = inhibition above about 11%; inactive = the rest.

These results are taken from PubChem BioAssay AID651602 (The Scripps Research Institute Molecular Screening Center, 2012).

This experiment is described as follows: growth loss of phage-infected E. coli, primary screen, RecBCD inhibitor project, absorbance, with phage, HTS (AID 651602). The conditions noted are these: at 11.9 µM, hits give high values.
Regarding `CCC(=O)N(c1ccccc1)C1(COC)CCN(CCc2cccs2)CC1`, the inhibition is inactive: -0.38%.

Consider `CCC(=O)N(c1ccccc1)C1(COC)CCN(CCn2nnn(CC)c2=O)CC1`, for which the inhibition is inactive: 1.45%.
